Test results taken from PubChem BioAssay (NCI).
This is a selection; strong and weak results do not stand in their true shares. The source holds several records for some structures; these can differ, active in one and inactive in another. Active and inactive are the calls of the source. Cut-off read from the data, not from the text of the source: active = growth inhibition above about 70%; inactive = the rest.

Assay: NCI Yeast Anticancer Drug Screen. Data for the sgs1 strain (AID 173);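 note: 0% = growth of vehicle-only control cultures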
Details: S. cerevisiae sgs1 mutant, hits give high values
Description: Growth inhibition of yeast strains with defined genetic alterations is measured as a screen for potential anti-cancer activity. Selected strains with alterations in DNA damage repair or cell cycle control were exposed to compounds and growth inhibition was measured relative to vehicle treated controls. The strain used in this assay is sgs1

| SMILES | growth inhibition (at 1.2 µM) | growth inhibition (at 3.7 µM) | growth inhibition (at 11.0 µM) | growth inhibition (at 33.0 µM) | growth inhibition (at 100.0 µM) |
| --- | --- | --- | --- | --- | --- |
| COc1ccc([N+](=O)[O-])c(C[N+](C)(CCCl)CCCl)c1 | inactive: 6% | inactive: 14% | inactive: 15% | inactive: 35% | active: 72% |
| Cc1ccc([N+](=O)[O-])c(C[N+](C)(CCCl)CCCl)c1 | inactive: 16% | inactive: 31% | inactive: 58% | active: 85% | active: 96% |
| ClCCN1CCCCC1CCl (stereo not given) | inactive: -2% | inactive: 1% | inactive: 13% | inactive: 43% | active: 80% |
| Cc1cccc(C[N+](C)(CCCl)CCCl)c1[N+](=O)[O-] | inactive: 19% | inactive: 32% | inactive: 55% | active: 81% | active: 95% |
| Cn1cnc([N+](=O)[O-])c1C[N+](C)(CCCl)CCCl | inactive: 17% | inactive: 29% | inactive: 55% | active: 75% | active: 87% |
| COc1ccc(C[N+](C)(CCCl)CCCl)c([N+](=O)[O-])c1 | inactive: 8% | inactive: 9% | inactive: 18% | inactive: 27% | inactive: 31% |
